Measured affinities in a library of Ab-95 light chain variants

The measurements come from Engelhart et al. 2022 (doi:10.1038/s41597-022-01779-4) through the FLAb antibody collection.

Target: peptide PDVDLGDISGINAS, taken from heptad repeat 2 (HR2) of SARS-CoV-2 spike.

Parent: Ab-95, a human scFv built as VH, the linker GGGGSGGGGSGGGGS, VL. Only the CDRs of the light chain vary.
VH: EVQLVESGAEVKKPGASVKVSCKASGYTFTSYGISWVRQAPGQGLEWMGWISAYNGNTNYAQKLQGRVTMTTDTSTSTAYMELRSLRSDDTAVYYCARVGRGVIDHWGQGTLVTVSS
VL: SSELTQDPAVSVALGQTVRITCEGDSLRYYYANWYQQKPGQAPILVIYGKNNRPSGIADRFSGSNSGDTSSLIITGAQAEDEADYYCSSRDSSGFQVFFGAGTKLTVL

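The parent was found by panning a naive human phage display library on the peptide. The library (AAYL52) carries one to three amino acid substitutions per variant, with no insertions or deletions. Affinity was read by AlphaSeq, a pooled yeast mating assay with surface-displayed partners. Binding brings cells together so that they mate, and sequencing counts the barcode pairs among the diploids. Read counts were normalised to the haploid input and turned into Kd by a linear fit to BCL2-family pairs of known affinity, for each replicate. The assay was run in three technical replicates.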

Substitutions are numbered in sequence along the VL above, starting at 1 (not Kabat). This list gathers variants with a substitution at F98 (VL, numbered from residue 1). The Kd shown is the geometric mean over detected replicates; a lower Kd is a better binder. "no signal" marks a missing value. The strain was present, yet no cells mated with the target were sequenced in any replicate, which points to weak or no binding. Empty control strains, which show no peptide, gave a signal in 28% of pairings with library AAYL52; the median was 8.2 µM and 95% of these signals were weaker than 800 nM. No background was subtracted.

* S88L+V97K+F98E: 8.5 µM (2 of 3 replicates)
* P54L+S89R+F98L: 11 µM (3 of 3 replicates)
* G24P+Y31G+F98Y: 610 µM (1 of 3 replicates)
* S92L+G94Y+F98M: no signal (0 of 3 replicates)
* A32L+S55E+F98Y: 51 µM (2 of 3 replicates)
* S26R+N33W+F98C: no signal (0 of 3 replicates)
* R90A+F95S+F98G: 750 nM (3 of 3 replicates)
* Y30V+S55G+F98K: 250 nM (3 of 3 replicates)
* Y30D+S92F+F98G: 690 nM (3 of 3 replicates)
* S26E+F98A: 8.1 µM (2 of 3 replicates)
* D25A+R53M+F98G: 5.7 µM (3 of 3 replicates)
* F95K+F98P: 370 nM (3 of 3 replicates)
* R28G+Y29R+F98Q: 220 nM (3 of 3 replicates)
* S89E+S93V+F98R: 140 nM (3 of 3 replicates)
* R53A+D91E+F98H: 5.4 µM (3 of 3 replicates)
* G24W+N51L+F98W: 9.2 µM (1 of 3 replicates)
* E23K+S88D+F98G: 71 nM (3 of 3 replicates)
* E23N+S93E+F98K: 65 nM (3 of 3 replicates)
* K50I+F95W+F98Y: 5.5 µM (1 of 3 replicates)
* G24C+Y30R+F98S: 270 nM (3 of 3 replicates)
* Y30H+V97L+F98S: 1.9 µM (2 of 3 replicates)
* Y29D+R90D+F98Y: 29 µM (2 of 3 replicates)
* Y31G+N52S+F98G: 180 nM (3 of 3 replicates)
* G49I+S89N+F98P: 280 µM (2 of 3 replicates)
* S26W+S93C+F98S: 23 µM (3 of 3 replicates)
* N52H+R53V+F98Y: 2.1 µM (3 of 3 replicates)
* R28S+G94C+F98K: no signal (0 of 3 replicates)
* F95K+Q96R+F98R: 280 nM (3 of 3 replicates)
* Y31P+N51V+F98I: 140 nM (3 of 3 replicates)
* A32V+F98A: 540 nM (1 of 3 replicates)
* R28S+F95E+F98K: 420 nM (3 of 3 replicates)
* S26F+P54Y+F98T: 910 nM (2 of 3 replicates)
* R90T+D91G+F98H: 2.9 µM (3 of 3 replicates)
* G24P+S92K+F98N: 2.3 µM (2 of 3 replicates)
* R28C+S93I+F98T: 1.1 µM (3 of 3 replicates)
* E23G+N51R+F98T: 3.5 µM (2 of 3 replicates)
* S89V+S93G+F98H: 250 nM (3 of 3 replicates)
* S88W+D91M+F98Y: 4.1 µM (2 of 3 replicates)
* D25R+A32C+F98C: 11 µM (3 of 3 replicates)
* K50P+S89V+F98H: 89 nM (3 of 3 replicates)
* G24V+Q96F+F98S: 1.3 µM (3 of 3 replicates)
* L27E+R53W+F98C: 17 µM (2 of 3 replicates)
* N51E+R90L+F98D: 8.1 µM (3 of 3 replicates)

From the list, the first 3 with no signal in any replicate:

- S92L+G94Y+F98M -> no signal (0 of 3 replicates)
- S26R+N33W+F98C -> no signal (0 of 3 replicates)
- R28S+G94C+F98K -> no signal (0 of 3 replicates)